Data taken from ChEMBL document CHEMBL3886269, “Pyrrolidine-fused thiadiazine dioxide compounds as BACE inhibitors, compositions, and their use” (2015).

Molecular target: T1, Beta-secretase 2 (Homo sapiens, UniProt Q9Y5Z0)
T1 sequence (Q9Y5Z0 whole entry): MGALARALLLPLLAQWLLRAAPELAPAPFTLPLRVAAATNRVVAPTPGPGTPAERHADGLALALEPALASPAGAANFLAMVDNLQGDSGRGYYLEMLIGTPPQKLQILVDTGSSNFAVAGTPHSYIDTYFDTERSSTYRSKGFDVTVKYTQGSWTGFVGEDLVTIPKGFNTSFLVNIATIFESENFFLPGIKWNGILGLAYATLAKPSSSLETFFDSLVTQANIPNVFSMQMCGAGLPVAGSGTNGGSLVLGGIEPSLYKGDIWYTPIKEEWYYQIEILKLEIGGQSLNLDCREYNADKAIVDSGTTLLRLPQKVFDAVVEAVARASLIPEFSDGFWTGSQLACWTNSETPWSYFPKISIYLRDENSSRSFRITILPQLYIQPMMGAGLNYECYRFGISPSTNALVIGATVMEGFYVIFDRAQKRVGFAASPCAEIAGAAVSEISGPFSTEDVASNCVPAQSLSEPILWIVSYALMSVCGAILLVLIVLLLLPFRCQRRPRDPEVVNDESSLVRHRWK
Assay: Time-Resolved Endpoint Proteolysis Assay: Inhibitor IC50s at purified human autoBACE-2 were determined in a time-resolved endpoint proteolysis assay that measures hydrolysis of the QSY7-[…]-Eu-amide FRET peptide substrate (BACE-HTRF assay). BACE-mediated hydrolysis of this peptide results in an increase in relative fluorescence (RFU) at 620 nm after excitation with 320 nm light.

CCc1nc(N2CC3C(c4ccccc4)(C2)NC(=N)N(C)S3(=O)=O)nc(OC)c1F (racemic)
Ki: 21 nM
